Experiment: an = ratio of the nth substance listed, in mol/kg
Conditions: 101 kPa, Liquid, Vibrating tube method

CCC[N+](CCC)(CCC)CCC.[O-][Cl+3]([O-])([O-])[O-] [tetrapropylammonium perchlorate] + CN(C)C=O
mass density [kg/m3]
Conditions | a1 = 0.01826 | a1 = 0.02772 | a1 = 0.03739 | a1 = 0.05602 | a1 = 0.07557 | a1 = 0.105 | a1 = 0.1323 | a1 = 0.1595 | a1 = 0.1889
283.15 K | 958.921 | 959.359 | 959.804 | 960.652 | 961.532 | 962.853 | 964.068 | 965.279 | 966.57
293.15 K | 949.431 | 949.88 | 950.335 | 951.208 | 952.108 | 953.456 | 954.704 | 955.944 | 957.263
298.15 K | 944.677 | 945.132 | 945.594 | 946.474 | 947.385 | 948.752 | 950.012 | 951.267 | 952.6
303.15 K | 939.914 | 940.374 | 940.842 | 941.736 | 942.66 | 944.04 | 945.316 | 946.585 | 947.938
313.15 K | 930.356 | 930.828 | 931.308 | 932.224 | 933.171 | 934.587 | 935.896 | 937.195 | 938.585
323.15 K | 920.751 | 921.238 | 921.731 | 922.67 | 923.642 | 925.097 | 926.436 | 927.766 | 929.191
333.15 K | 911.09 | 911.587 | 912.092 | 913.055 | 914.058 | 915.555 | 916.928 | 918.295 | 919.755

Source: the NIST ThermoML archive (doi:10.1016/j.jct.2005.05.008)
